# Laboratory results as given in the supplement of paper PMC11403291.
# Amino acid sequences for entries named in this document (tags omitted). A change or cut given only in a name is not applied to a line headed by its entry.
# UniProt P42684, whole entry: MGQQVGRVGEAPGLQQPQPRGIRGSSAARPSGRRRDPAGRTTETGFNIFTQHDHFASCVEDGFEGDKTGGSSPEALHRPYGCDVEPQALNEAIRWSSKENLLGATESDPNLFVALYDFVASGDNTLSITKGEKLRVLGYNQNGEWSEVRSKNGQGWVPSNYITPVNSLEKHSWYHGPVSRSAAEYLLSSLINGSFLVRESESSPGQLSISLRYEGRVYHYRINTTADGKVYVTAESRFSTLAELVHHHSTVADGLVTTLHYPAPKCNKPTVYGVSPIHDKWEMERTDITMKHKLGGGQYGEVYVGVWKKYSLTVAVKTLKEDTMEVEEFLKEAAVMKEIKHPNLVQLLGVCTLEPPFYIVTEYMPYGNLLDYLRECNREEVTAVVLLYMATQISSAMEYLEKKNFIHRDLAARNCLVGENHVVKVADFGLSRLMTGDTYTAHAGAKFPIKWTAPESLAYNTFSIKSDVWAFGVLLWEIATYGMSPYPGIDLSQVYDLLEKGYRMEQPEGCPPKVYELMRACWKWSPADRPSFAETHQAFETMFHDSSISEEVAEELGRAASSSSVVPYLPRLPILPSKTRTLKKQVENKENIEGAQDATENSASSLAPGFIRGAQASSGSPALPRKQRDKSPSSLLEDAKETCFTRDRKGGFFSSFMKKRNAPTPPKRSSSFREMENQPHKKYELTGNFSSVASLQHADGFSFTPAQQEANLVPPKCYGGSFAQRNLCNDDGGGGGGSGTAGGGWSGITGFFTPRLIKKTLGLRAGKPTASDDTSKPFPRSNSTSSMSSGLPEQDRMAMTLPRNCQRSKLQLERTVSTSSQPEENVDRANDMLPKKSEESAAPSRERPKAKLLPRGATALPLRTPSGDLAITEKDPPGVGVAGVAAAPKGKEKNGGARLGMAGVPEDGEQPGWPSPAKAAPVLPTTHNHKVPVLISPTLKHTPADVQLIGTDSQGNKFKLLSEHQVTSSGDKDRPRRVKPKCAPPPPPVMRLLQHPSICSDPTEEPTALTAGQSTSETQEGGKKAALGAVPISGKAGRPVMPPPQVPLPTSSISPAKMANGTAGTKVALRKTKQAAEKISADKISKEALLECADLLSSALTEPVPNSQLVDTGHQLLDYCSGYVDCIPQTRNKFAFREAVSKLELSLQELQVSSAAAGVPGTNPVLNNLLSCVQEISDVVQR
# UniProt Q14004, whole entry, looked up: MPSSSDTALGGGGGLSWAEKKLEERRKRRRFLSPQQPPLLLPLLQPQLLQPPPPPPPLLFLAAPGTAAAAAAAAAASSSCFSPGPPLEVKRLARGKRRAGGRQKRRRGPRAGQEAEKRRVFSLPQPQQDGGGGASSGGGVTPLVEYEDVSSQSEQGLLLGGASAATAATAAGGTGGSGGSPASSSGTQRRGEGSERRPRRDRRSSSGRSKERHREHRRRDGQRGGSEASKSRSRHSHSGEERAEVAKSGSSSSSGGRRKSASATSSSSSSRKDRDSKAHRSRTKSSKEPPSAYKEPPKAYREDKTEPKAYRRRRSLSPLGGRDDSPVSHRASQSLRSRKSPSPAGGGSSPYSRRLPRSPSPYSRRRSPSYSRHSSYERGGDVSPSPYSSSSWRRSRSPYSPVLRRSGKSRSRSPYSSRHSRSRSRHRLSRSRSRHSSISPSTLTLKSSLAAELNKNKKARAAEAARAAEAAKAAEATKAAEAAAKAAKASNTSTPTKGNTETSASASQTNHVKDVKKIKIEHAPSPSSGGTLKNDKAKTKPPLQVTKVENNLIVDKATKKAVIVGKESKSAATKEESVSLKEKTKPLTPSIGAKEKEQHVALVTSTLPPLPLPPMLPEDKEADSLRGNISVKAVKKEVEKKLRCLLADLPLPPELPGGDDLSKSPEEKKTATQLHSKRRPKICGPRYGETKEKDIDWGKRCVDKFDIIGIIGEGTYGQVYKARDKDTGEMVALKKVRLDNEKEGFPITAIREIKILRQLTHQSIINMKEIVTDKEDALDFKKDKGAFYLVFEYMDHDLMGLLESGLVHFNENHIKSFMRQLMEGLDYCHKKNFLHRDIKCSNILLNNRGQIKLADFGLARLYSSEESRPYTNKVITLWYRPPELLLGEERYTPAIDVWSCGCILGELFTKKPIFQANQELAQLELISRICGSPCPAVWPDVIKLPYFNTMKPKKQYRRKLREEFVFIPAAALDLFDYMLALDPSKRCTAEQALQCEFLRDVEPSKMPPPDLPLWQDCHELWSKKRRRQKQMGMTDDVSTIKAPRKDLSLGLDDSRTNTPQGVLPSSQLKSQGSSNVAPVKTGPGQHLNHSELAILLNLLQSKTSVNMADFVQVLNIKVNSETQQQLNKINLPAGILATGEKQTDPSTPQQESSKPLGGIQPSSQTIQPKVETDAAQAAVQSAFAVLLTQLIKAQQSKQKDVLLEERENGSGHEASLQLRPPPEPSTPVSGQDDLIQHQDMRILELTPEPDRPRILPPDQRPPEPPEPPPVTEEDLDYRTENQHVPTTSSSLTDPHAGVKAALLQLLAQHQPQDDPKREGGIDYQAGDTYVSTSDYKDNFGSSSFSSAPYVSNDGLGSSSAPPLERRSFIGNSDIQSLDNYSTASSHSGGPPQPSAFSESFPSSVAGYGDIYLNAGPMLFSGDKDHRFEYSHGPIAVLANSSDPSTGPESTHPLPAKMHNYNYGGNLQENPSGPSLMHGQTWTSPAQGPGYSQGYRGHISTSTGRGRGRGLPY
# UniProt P06241, whole entry, looked up: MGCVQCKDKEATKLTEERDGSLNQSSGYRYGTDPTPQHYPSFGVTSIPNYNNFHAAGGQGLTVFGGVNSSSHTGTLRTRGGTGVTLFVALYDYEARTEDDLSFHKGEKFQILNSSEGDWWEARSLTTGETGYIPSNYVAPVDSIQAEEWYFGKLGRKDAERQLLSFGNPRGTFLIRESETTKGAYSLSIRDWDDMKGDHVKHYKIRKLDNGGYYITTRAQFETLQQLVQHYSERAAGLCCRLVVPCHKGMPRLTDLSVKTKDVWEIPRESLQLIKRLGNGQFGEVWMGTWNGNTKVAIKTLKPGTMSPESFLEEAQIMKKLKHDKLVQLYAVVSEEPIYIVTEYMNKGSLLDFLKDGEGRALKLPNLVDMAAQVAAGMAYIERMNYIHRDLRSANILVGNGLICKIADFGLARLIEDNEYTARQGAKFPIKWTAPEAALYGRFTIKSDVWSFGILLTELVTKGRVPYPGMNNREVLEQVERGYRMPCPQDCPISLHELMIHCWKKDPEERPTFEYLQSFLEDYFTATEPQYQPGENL
# UniProt Q14289, whole entry, looked up: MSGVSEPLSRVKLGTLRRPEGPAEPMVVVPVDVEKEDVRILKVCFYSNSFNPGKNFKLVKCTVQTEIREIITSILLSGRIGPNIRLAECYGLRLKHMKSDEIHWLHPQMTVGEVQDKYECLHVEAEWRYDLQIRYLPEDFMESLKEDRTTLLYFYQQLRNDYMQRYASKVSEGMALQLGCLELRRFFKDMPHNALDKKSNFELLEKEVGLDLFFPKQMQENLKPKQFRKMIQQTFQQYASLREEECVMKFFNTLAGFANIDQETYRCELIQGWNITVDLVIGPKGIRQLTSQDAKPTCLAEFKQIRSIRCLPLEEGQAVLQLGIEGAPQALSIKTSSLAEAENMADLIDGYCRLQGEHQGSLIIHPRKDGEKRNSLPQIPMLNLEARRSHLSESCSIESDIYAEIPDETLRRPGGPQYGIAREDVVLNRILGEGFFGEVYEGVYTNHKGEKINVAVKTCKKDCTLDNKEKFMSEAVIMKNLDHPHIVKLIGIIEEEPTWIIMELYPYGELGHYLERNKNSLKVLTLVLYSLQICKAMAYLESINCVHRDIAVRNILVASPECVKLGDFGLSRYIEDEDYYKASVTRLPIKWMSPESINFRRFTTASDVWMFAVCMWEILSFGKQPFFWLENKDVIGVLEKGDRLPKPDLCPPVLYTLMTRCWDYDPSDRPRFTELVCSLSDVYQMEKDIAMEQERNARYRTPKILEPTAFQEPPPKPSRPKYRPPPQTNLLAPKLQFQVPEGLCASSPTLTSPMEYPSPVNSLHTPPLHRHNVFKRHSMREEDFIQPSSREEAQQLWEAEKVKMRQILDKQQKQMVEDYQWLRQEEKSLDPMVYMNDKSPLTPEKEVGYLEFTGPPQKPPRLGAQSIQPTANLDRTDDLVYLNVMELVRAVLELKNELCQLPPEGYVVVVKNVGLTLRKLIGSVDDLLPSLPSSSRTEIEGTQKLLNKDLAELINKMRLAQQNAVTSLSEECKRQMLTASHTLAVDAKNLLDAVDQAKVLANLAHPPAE
# UniProt Q9BVS4: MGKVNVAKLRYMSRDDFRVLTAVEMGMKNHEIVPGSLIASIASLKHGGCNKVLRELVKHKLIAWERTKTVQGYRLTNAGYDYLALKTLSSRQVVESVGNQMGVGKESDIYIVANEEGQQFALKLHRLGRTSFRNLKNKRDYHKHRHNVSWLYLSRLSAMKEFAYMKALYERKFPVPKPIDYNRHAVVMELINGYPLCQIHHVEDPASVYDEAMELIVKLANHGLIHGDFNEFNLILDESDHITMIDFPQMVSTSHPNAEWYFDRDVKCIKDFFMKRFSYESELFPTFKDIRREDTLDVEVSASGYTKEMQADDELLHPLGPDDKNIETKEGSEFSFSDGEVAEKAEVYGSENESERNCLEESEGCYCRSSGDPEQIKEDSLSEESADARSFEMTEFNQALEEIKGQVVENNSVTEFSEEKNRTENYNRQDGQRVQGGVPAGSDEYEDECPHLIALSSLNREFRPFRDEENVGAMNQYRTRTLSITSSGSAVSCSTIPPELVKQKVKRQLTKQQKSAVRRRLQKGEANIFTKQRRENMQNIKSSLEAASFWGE
# UniProt O75676: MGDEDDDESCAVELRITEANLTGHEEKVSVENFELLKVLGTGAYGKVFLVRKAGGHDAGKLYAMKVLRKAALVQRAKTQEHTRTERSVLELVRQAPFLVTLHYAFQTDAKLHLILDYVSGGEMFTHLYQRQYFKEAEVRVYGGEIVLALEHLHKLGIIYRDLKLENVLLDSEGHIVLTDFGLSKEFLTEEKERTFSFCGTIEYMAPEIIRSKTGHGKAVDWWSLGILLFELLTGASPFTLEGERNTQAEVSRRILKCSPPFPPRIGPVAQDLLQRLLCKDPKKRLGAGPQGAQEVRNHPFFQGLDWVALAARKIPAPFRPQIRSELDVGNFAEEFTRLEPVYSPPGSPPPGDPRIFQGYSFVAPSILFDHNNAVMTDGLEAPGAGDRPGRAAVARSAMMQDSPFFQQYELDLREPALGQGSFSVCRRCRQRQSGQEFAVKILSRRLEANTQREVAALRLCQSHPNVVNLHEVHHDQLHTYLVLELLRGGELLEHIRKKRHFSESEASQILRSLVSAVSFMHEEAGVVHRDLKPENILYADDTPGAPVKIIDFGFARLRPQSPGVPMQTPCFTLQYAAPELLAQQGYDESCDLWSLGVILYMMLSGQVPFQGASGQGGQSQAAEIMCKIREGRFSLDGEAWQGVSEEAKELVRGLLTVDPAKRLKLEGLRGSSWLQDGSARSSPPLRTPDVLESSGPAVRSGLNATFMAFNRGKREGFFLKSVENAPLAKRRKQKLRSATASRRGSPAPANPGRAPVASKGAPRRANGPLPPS
# How the values were obtained:
# Test in all cases: apparent dissociation constant pKd app (kinobead competition) (-log10(M)); higher = stronger binding
# [1] = biological target: ABL2 (UniProt P42684)
# [2] = biological target: CDC2L5 (UniProt Q14004)
# [3] = biological target: FYN (UniProt P06241)
# [4] = biological target: T1, NEK9 (UniProt Q8TD19)
# T1 sequence (whole entry): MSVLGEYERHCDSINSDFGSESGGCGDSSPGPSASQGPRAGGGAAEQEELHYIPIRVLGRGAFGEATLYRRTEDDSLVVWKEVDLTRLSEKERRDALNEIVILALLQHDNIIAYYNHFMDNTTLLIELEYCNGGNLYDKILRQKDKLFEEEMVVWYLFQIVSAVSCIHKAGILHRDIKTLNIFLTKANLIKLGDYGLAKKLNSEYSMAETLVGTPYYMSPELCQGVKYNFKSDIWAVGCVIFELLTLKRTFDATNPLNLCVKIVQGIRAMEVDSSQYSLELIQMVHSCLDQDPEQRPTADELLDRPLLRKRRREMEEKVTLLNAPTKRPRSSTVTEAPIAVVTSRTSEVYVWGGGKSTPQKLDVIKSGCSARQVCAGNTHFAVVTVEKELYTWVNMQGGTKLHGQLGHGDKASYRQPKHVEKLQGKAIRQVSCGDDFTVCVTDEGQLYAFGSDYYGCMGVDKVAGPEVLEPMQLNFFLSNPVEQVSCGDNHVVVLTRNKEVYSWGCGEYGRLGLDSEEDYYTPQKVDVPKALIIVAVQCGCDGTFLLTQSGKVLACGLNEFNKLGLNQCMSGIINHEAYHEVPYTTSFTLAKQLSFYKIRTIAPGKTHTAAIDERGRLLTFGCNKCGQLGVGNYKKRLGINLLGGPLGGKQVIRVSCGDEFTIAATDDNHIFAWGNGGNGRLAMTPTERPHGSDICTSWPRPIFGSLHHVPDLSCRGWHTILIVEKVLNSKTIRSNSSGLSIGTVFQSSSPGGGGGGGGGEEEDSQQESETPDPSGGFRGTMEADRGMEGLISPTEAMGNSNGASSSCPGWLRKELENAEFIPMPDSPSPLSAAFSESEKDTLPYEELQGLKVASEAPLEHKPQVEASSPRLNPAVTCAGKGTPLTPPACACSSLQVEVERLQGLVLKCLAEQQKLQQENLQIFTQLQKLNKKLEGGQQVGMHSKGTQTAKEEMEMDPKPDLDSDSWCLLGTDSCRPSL
# [5] = biological target: T2, PKMYT1 (UniProt Q99640)
# T2 sequence (whole entry): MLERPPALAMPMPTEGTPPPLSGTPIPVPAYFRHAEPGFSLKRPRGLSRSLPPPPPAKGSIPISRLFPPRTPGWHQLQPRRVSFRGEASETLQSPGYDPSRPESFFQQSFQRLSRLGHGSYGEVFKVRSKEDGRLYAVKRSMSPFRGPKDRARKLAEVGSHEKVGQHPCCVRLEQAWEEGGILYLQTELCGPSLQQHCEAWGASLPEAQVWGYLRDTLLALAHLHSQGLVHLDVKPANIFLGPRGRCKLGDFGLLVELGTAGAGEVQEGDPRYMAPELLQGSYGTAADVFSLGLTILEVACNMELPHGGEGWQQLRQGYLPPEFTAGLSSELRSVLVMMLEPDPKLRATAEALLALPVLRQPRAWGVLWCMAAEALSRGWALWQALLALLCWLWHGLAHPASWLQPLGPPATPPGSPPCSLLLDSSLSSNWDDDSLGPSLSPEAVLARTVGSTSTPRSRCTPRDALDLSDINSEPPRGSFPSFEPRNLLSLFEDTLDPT
# [6] = biological target: PTK2B (UniProt Q14289)
# [7] = biological target: RIOK2 (UniProt Q9BVS4)
# [8] = biological target: RPS6KA4 (UniProt O75676)
SMILES,apparent dissociation constant pKd app (-log10) [1],apparent dissociation constant pKd app (-log10) [2],apparent dissociation constant pKd app (-log10) [3],apparent dissociation constant pKd app (-log10) [4],apparent dissociation constant pKd app (-log10) [5],apparent dissociation constant pKd app (-log10) [6],apparent dissociation constant pKd app (-log10) [7],apparent dissociation constant pKd app (-log10) [8]
NC(=O)c1cccc2cn(-c3ccc([C@@H]4CCCNC4)cc3)nc12 [Niraparib],< 4.7,< 4.5,< 4.8,< 4.6,< 4.5,< 4.8,< 4.5,< 4.6
O=C(c1cc(Cc2n[nH]c(=O)c3ccccc23)ccc1F)N1CCN(C(=O)C2CC2)CC1 [Olaparib],< 4.7,< 4.5,< 4.8,< 4.6,< 4.5,< 4.8,< 4.5,< 4.6
Cn1ncnc1[C@H]1c2n[nH]c(=O)c3cc(F)cc(c23)N[C@@H]1c1ccc(F)cc1 [Talazoparib],< 4.7,< 4.5,< 4.8,< 4.6,< 4.5,< 4.8,< 4.5,< 4.6
